The values that follow are results of earlier work, collected in patent US20140171490A1, “Method and Device for Ophthalmic Administration of Active Pharmaceutical Ingredients” (PHARMALIGHT INC., priority 2005, published 2014).

This data set relates to eye. To be noted: reported in Saettone et al. Int. J. Pharma. 1996; cited from earlier work.

For escin, the “irritation to the eye” value is “strongly irritating to the eye”.
